Columns and labels:
Experiment in all cases: Ki determination for immobilized VI16742: two consecutive incubations, control beads, ligand concentration and incubation time controls (Tables 7, 8)
Format in all cases: binding
[1] = molecular target: T1, cellular target proteins in HeLa cell lysate (Homo sapiens, UniProt Q8IVH8); conditions: Ki (VI16742), KHS2 (MAP4K3) IPI00217024
T1 sequence (Q8IVH8 1-894): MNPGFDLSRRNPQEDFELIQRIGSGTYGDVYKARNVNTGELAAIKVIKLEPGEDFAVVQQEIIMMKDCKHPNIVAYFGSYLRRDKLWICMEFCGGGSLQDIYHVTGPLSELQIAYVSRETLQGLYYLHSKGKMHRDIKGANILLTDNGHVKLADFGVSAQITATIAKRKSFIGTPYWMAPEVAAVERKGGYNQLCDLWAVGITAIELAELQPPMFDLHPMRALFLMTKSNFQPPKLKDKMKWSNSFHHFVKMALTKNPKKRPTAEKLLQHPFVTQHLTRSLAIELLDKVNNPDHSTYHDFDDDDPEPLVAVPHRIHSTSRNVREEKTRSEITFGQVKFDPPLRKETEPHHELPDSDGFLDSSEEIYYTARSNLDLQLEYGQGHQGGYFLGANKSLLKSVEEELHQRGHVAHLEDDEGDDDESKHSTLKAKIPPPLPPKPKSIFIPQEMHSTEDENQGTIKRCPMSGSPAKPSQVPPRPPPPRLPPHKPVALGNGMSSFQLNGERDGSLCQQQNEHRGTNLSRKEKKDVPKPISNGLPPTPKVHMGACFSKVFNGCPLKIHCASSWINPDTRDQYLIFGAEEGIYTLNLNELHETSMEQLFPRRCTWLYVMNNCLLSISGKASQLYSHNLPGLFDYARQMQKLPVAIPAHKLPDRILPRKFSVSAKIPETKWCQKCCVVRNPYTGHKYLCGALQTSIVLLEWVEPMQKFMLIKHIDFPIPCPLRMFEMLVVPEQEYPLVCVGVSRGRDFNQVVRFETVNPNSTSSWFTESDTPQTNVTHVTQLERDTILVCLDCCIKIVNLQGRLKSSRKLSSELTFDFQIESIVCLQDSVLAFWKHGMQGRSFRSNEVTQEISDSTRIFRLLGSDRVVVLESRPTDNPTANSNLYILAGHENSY
Text: (§1) In an alternative implementation of the chemical proteomic approach according to the invention, the broadly-selective pyrido[2,3-d]pyrimidine-based kinase inhibitor VI16742 has been used for affinity capture (FIG. 10a). […] As shown by gene ontology analysis, the corresponding molecular functions were highly over-represented in proteins specifically retained by the inhibitor resin (FIG. 10b).
(§2) Cysteine carbamidomethylation was set as a fixed modification and N-acetyl protein and oxidized methionine were allowed as variable modifications. Spectra that were determined to result from heavy labeled peptides in the pre-search detection of SILAC partners by MaxQuant were searched with the fixed modifications Lys^4, Lys^8, Arg^6 and Arg^10, whereas MS/MS spectra for which no SILAC state could be assigned before database searching were searched with Lys^4, Lys^8, Arg^6 and Arg^10 as variable modifications. The mass tolerance was set to 5 ppm for monoisotopic precursor ions and to 0.5 Da for MS/MS peaks. The minimum peptide length was set to 6 amino acids and up to three missed cleavages and three isotopically labeled amino acids were permitted per peptide. The accepted false discovery rate (FDR) was 1% for the proteins and peptides. The cut-off for the posterior error probability (PEP) of peptides was set to 10%. Peptide PEPs were determined by generating Mascot score and peptide-length-dependent histograms for both the forward and the reverse hits and then deriving the probability of a false identification for a given top-scoring peptide using Bayes' theorem. The PEPs of peptides belonging to the same proteins were then multiplied. Each peptide sequence was considered only once with the lowest PEP determined in case of multiple sequencing of the same isotopic pattern or of peptide species with different SILAC, charge or modification states. Proteins were then sorted according to their products of their peptide PEPs and included until a FDR of 1% was reached according to the fraction of reverse proteins contained in the protein list. In addition to the FDR threshold applied for protein identification, proteins were only included when they were identified with at least two peptides (of which one was required to be unique for the protein) and quantified if at least on quantifiable SILAC pair was associated with them. Outliers were not removed as protein ratios were calculated as the median instead of the average of all peptide ratios. For peptides shared among different identified proteins, SILAC ratios were only considered for the ratio of the protein identified with the highest number of unique peptides. Protein ratios for the different in vitro association experiments were corrected for the initial SILAC pooling ratio, which was determined from the median of protein ratios in pooled SILAC-encoded cell extracts.

Sequences of proteins named here, by UniProt entry; tags and fusion partners are left off. A change or cut given only in a name is not applied to a line headed by its entry.
UniProt O60583: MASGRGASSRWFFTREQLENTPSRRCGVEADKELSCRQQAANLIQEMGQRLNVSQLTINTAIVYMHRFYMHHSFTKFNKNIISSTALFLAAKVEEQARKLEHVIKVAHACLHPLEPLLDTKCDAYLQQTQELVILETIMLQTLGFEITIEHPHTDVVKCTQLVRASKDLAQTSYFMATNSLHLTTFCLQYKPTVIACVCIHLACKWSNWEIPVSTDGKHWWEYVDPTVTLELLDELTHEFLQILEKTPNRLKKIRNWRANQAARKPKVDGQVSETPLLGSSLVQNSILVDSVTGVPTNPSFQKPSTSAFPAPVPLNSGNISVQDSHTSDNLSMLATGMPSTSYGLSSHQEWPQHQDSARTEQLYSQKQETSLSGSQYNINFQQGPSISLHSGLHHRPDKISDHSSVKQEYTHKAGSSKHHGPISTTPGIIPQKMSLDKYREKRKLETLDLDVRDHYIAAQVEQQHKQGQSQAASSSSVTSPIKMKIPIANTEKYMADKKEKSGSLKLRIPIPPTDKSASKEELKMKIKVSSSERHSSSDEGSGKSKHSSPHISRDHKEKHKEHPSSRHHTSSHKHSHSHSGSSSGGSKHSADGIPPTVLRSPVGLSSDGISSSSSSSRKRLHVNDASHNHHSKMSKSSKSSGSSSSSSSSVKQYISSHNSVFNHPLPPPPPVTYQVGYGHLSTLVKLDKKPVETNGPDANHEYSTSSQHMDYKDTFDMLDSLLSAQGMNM

[2] = molecular target: cellular target proteins in HeLa cell lysate (Homo sapiens, UniProt O60583); conditions: Ki (VI16742), CCNT2 IPI00030313
Text: as §1, §2

[3] = molecular target: T2, cellular target proteins in HeLa cell lysate (Homo sapiens, UniProt P63104); conditions: Ki (VI16742), YWHAZ IPI00021263
T2 sequence (P63104 1-245): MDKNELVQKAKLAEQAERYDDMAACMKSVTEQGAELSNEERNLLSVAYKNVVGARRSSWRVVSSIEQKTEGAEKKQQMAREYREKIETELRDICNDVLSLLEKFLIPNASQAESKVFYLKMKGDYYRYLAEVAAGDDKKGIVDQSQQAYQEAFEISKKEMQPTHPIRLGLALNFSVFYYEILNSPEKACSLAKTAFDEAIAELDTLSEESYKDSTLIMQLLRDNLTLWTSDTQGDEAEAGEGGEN
Text: as §1, §2

[4] = molecular target: T3, cellular target proteins in HeLa cell lysate (Homo sapiens, UniProt Q13043); conditions: Ki (VI16742), MST1 (STK4) IPI00011488
T3 sequence (Q13043 1-487): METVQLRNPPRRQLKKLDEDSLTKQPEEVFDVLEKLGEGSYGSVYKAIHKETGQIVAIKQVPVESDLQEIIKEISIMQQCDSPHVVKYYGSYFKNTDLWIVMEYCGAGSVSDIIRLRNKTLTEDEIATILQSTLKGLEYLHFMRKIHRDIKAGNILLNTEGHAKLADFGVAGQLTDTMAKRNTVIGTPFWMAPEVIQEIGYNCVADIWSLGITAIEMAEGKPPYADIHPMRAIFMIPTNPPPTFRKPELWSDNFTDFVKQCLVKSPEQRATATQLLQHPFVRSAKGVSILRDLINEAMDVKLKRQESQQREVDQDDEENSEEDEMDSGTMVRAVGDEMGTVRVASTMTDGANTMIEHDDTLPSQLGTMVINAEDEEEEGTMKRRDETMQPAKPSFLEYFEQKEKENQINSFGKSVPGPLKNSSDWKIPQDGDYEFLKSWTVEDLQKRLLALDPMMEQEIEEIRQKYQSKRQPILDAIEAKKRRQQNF
Text: as §1, §2

Compound: CC(C)n1c(=O)ccc2cnc(Nc3ccc(OCCN)cc3)nc21 [V16742]
- Ki [1]: 16.6 µM
- Ki [2]: 6.11 µM
- Ki [3]: 36.3 µM
- Ki [4]: 28.9 µM

Source: patent US8959984B2, “Proteome-wide quantification of small molecule binding to cellular target proteins” (priority 2007, dated 2015)
